# Patent publication US11014933B2 (priority 2018, dated 2021)
# Chains of the proteins cited; added tags and fusions are not shown.
# UniProt P33535, whole entry: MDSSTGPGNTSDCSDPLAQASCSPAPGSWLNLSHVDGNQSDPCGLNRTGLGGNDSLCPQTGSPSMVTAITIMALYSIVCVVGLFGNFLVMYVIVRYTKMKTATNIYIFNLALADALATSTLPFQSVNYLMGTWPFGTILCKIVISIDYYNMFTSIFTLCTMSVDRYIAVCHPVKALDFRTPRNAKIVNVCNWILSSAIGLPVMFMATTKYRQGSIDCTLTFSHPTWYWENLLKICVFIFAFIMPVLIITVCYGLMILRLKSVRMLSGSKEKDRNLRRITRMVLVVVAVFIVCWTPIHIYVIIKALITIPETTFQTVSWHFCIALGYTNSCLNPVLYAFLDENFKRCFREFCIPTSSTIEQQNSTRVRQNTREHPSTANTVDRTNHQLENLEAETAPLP
# Molecular target: rat MOR (Rattus norvegicus, UniProt P33535)
# Assay: MOR internalization in N2A-HA-rMOR cells
# Format: cell-based
# Settings: NFP and etorphine incubated together, 10 μM respectively
structure (smiles),measurement,value
O=C(N[C@@H]1CC[C@@]2(O)[C@H]3Cc4ccc(O)c5c4[C@@]2(CCN3CC2CC2)[C@H]1O5)c1ccncc1F [Compound 1],Effect on etorphine-induced internalization of the MOR,internalization of the MOR induced by etorphine was reduced
